Conditions: Citrus sinensis

Compound | Migration Rate | detection in the 18-20 cm or the 28-30 cm sections of the stem by GC/MS
Cc1nnc(C)s1 [2,5-Dimethyl-1,3,4-thiadiazole] | 1.75 cm/h | –
O=CC=Cc1ccccc1 [Cinnamaldehyde] | 1.50 cm/h | –
C=CCSSSCC=C [Diallyl Trisulfide] | 3.25 cm/h | not in the 18-20 cm or the 28-30 cm sections
C=CCSSCC=C [Diallyl disulfide] | 3.0 cm/h | not in the 18-20 cm or the 28-30 cm sections

— patent US12414569B2 (priority 2019, dated 2025)
